The assay concerns the target Autotaxin (Rattus norvegicus) (UniProt Q64610). The experiment in a line: Inhibition of rat ATX lysoPLD activity using LPC as substrate assessed as residual activity measured after 60 mins by HVA fluorescence based analysis relative to control.

Structures are written as SMILES.

We go through one molecule from ChEMBL document CHEMBL5154880, “Structure-Based Design of a Novel Class of Autotaxin Inhibitors Based on Endogenous Allosteric Modulators” (J Med Chem, 2022).

As for `C[C@H](CCC(=O)O)[C@H]1CC[C@H]2[C@@H]3[C@@H](O)C[C@@H]4C[C@H](O)CC[C@]4(C)[C@H]3CC[C@]12C`, the Activity amounted to 61%.
